Data on 4 molecules can be found in ChEMBL document CHEMBL4765381, “Neuropeptide FF and Its Receptors: Therapeutic Applications and Ligand Development” (J Med Chem, 2020).

Protein sequences, listed by entry. Tags and fused reporters are not part of them. Lines headed by an entry give the natural chain unless they say otherwise; changes in a name come on top.
UniProt Q9GZQ6: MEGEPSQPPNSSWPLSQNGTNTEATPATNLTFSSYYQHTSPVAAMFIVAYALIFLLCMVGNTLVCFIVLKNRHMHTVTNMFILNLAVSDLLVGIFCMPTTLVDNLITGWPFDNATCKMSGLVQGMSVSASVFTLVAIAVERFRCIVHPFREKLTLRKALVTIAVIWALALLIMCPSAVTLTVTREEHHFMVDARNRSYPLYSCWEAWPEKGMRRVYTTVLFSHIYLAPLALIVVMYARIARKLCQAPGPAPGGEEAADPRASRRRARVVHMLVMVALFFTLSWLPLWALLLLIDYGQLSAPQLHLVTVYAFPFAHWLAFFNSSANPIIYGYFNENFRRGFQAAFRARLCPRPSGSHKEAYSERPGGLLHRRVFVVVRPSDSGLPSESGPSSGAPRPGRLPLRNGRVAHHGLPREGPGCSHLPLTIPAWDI
UniProt Q9Y5X5: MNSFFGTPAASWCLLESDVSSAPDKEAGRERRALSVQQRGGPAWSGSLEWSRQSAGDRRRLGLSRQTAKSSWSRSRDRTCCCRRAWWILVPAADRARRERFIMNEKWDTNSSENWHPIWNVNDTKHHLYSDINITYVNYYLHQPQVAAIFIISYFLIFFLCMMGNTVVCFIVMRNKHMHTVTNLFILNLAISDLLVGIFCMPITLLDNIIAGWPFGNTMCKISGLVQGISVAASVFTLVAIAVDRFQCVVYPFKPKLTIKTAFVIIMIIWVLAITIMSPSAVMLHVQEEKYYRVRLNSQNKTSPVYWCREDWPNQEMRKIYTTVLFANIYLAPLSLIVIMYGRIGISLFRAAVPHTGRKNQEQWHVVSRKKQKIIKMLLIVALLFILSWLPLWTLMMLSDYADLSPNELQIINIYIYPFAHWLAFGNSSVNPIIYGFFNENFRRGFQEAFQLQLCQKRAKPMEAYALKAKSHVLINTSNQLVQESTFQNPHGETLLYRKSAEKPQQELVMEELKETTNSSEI

Test [1] addresses T1, Neuropeptide FF receptor 1 (Homo sapiens, UniProt Q9GZQ6). Nature of the test: Displacement of [125I]YVP from human NPFFR1 expressed in HEK293 cells by radioligand binding assay. The format is cell-based. (In general: In a radioligand displacement assay an active substance lowers the binding of a labelled ligand.)
Test [2] concerns the target T1, Neuropeptide FF receptor 1. Nature of the test: Displacement of [125I]YVP from human NPFFR1 expressed in CHO cells by gamma-counter method. The format is cell-based.
Test [3] addresses T2, Neuropeptide FF receptor 2 (Homo sapiens, UniProt Q9Y5X5). Nature of the test: Agonist activity at NPFFR2 (unknown origin) expressed in mouse NIH3T3 cells by receptor selection and amplification technology assay relative to control. The format is cell-based. Conditions: filed as agonist.
Test [4] has as its target T2, Neuropeptide FF receptor 2. Description: Agonist activity at NPFFR2 (unknown origin) expressed in HEK293T cells harboring EP2 incubated for 15 mins by cAMP assay relative to control. The test is classed as functional, cell-based.
Test [5] has as its target T2, Neuropeptide FF receptor 2. Nature of the test: Agonist activity at NPFFR2 (unknown origin) expressed in mouse NIH3T3 cells by receptor selection and amplification technology assay. The test is classed as cell-based.
The target of test [6] is T2, Neuropeptide FF receptor 2. Nature of the test: Agonist activity at NPFFR2 (unknown origin) expressed in HEK293T cells harboring EP2 incubated for 15 mins by cAMP assay. The test is classed as functional, cell-based. (Changes in cAMP serve as a functional read-out for many G protein-coupled receptors.)

By Ki is commonly meant a dissociation constant, usually derived from enzyme kinetics or from competition with a known ligand. A higher Ki goes with lower affinity. As usually defined, the EC50 is the concentration at which the effect is half-maximal. A high value points to lower potency in that assay.

As for `CC(C)C[C@H](NC(=O)[C@H](CC(N)=O)NC(=O)[C@@H]1CCCN1C(=O)[C@@H](N)C(C)C)C(=O)N1CCC[C@H]1C(=O)N[C@@H](CCC(N)=O)C(=O)N[C@@H](CCCNC(=N)N)C(=O)N[C@@H](Cc1ccccc1)C(N)=O`, the values for the Ki in test [1] and in test [2] were 0.0013 µM and 0.00059 µM, respectively.

Turning to `N=C(N)N/N=C/c1ccc(Cl)c(Cl)c1`, the Efficacy in test [3] amounted to 52.2%; in test [4], 35%.

Regarding `N=C(N)N/N=C/c1ccc(Cl)c(C(F)(F)F)c1`, the EC50 in test [5] was 0.398 µM; in test [6], 3.98 µM.

Turning to `N=C(N)N/N=C/c1ccc(Br)c(Br)c1`, the figures for the Efficacy in test [3] and in test [4] (filed as agonist) were 87.6% and 78%, respectively.
